# Antibody variant affinities, Ab-91 heavy chain, assay 2

Target: peptide PDVDLGDISGINAS, taken from heptad repeat 2 (HR2) of SARS-CoV-2 spike.

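AAYL51 was designed without a model: most single CDR substitutions and a random sample of double and triple ones. Affinity was read by AlphaSeq, a pooled yeast mating assay with surface-displayed partners. The frequency of each diploid, read from paired DNA barcodes, reflects how well the two displayed proteins bind. Each replicate has its own calibration line, from reference interactions of the BCL2 family. There are three technical replicates.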

Each scFv is VL, the linker GGGGSGGGGSGGGGS, VH, as in the parent Ab-91, and differs from it in the CDRs of the heavy chain only.
VL: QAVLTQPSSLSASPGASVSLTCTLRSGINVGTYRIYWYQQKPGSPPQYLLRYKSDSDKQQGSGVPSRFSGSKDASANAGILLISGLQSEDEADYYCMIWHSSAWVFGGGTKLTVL
VH: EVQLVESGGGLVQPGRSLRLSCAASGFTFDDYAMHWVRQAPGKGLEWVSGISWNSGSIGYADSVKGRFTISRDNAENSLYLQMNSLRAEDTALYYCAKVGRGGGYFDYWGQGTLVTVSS

Positions count from residue 1 of the parent VH; S57E puts E in place of S.
All variants listed here change D62 of the VH, counted from its first residue.
Each Kd is an estimate from the mating assay, the geometric mean of the replicates in which the pair was seen; lower is stronger.
"nd" means that the variant was in the library but no mating with the target was seen in any replicate; the authors take this as a sign of poor binding, and no number exists.
Entries are sorted by rising average, undetected variants last.

| changes | Kd | detected | signal with controls |
|---|---|---|---|
| S57E+D62M+R101Q | 630 pM | 3/3 | 2/9 |
| F27S+I58T+D62Y | 36 nM | 3/3 | 2/9 |
| D62C | 45 nM | 3/3 | 2/9 |
| G56M+D62E+F106Y | 180 nM | 3/3 | 0/9 |
| A61R+D62T+G100K | 190 nM | 3/3 | 0/9 |
| G56N+D62L+G103S | 260 nM | 3/3 | 4/9 |
| D30Y+W53M+D62F | 330 nM | 3/3 | 0/9 |
| F29L+D31S+D62S | 710 nM | 3/3 | 2/9 |
| Y32M+S57D+D62N | 800 nM | 3/3 | 1/9 |
| D31W+D62M | 870 nM | 3/3 | 6/9 |
| T28M+D62V | 940 nM | 3/3 | 1/9 |
| T28P+D62I+F106M | 1.1 µM | 3/3 | 4/9 |
| F27L+I58N+D62V | 1.8 µM | 1/3 | 0/9 |
| I51D+D62N+G104A | 2.4 µM | 1/3 | 3/9 |
| F27Y+N54Y+D62V | 3.4 µM | 1/3 | 2/9 |
| D62P+V99S | 4.2 µM | 1/3 | 2/9 |
| T28C+D62W+Y105G | 4.7 µM | 1/3 | 0/9 |
| G26T+D30C+D62F | 8.8 µM | 2/3 | 0/9 |
| G56E+D62Y+R101T | 10 µM | 2/3 | 3/9 |
| F29G+Y60W+D62V | 17 µM | 1/3 | 2/9 |
| D31V+D62K+Y105R | 19 µM | 1/3 | 5/9 |
| F29S+S52W+D62F | 23 µM | 2/3 | 6/9 |
| S52N+S57A+D62T | 24 µM | 2/3 | 2/9 |
| N54E+D62C+G100V | 28 µM | 3/3 | 9/9 |
| H35G+D62N+G104V | 31 µM | 3/3 | 6/9 |
| Y32F+G50H+D62S | 32 µM | 1/3 | 0/9 |
| G59L+D62R+S63K | 32 µM | 1/3 | 3/9 |
| D62I+S63D+R101E | 41 µM | 1/3 | 3/9 |
| S52W+D62S+K65D | 49 µM | 2/3 | 5/9 |
| D62V+S63Y+V64C | 58 µM | 2/3 | 2/9 |
| D62T+G104A+Y108I | 70 µM | 3/3 | 4/9 |
| H35F+A61Q+D62L | 80 µM | 1/3 | 1/9 |
| I51P+D62F+G100I | 110 µM | 2/3 | 5/9 |
| S52G+A61R+D62S | 170 µM | 1/3 | 0/9 |
| H35V+D62P+Y105G | 210 µM | 2/3 | 2/9 |
| G50A+W53S+D62C | 220 µM | 2/3 | 4/9 |
| M34S+D62A+G102C | 310 µM | 1/3 | 3/9 |
| I51E+S55W+D62C | 590 µM | 1/3 | 2/9 |
| F29S+G56R+D62Q | 6.5 mM | 1/3 | 6/9 |
| D62Q+G102R+F106V | nd | 0/3 | 0/9 |
| H35A+A61Y+D62S | nd | 0/3 | 0/9 |
| A33F+S55A+D62V | nd | 0/3 | 1/9 |
| S55W+D62K | nd | 0/3 | 1/9 |
| G56K+D62F+D107V | nd | 0/3 | 0/9 |
| S52R+D62R+S63P | nd | 0/3 | 1/9 |
| A33M+G56C+D62E | nd | 0/3 | 0/9 |
| Y60C+D62C+D107L | nd | 0/3 | 0/9 |
| G50W+D62A+K65M | nd | 0/3 | 1/9 |
| S52D+D62L+D107F | nd | 0/3 | 0/9 |
| D62W+K65C+G100H | nd | 0/3 | 1/9 |
| I58H+D62R+Y108N | nd | 0/3 | 0/9 |
| G56P+S57A+D62H | nd | 0/3 | 1/9 |
| F29Y+D62V+G103M | nd | 0/3 | 1/9 |
| M34N+D62R+G100Y | nd | 0/3 | 2/9 |
| D31I+I51D+D62A | nd | 0/3 | 1/9 |
| D62R+G100H+G102H | nd | 0/3 | 1/9 |
| G26Y+D62G+D107P | nd | 0/3 | 0/9 |
| F29A+D62R+R101N | nd | 0/3 | 0/9 |
| N54M+I58W+D62L | nd | 0/3 | 0/9 |
| F29C+D62M | nd | 0/3 | 0/9 |
| F29H+S55W+D62W | nd | 0/3 | 0/9 |
| N54C+Y60Q+D62I | nd | 0/3 | 0/9 |
| S57P+D62A | nd | 0/3 | 0/9 |
| F27R+D62H+G102P | nd | 0/3 | 0/9 |

6 of these entries, quoted again:

{"changes": "D31I+I51D+D62A", "Kd": "nd", "detected": "0/3", "signal with controls": "1/9"}
{"changes": "D62W+K65C+G100H", "Kd": "nd", "detected": "0/3", "signal with controls": "1/9"}
{"changes": "T28P+D62I+F106M", "Kd": "1.1 µM", "detected": "3/3", "signal with controls": "4/9"}
{"changes": "D62V+S63Y+V64C", "Kd": "58 µM", "detected": "2/3", "signal with controls": "2/9"}
{"changes": "N54C+Y60Q+D62I", "Kd": "nd", "detected": "0/3", "signal with controls": "0/9"}
{"changes": "H35F+A61Q+D62L", "Kd": "80 µM", "detected": "1/3", "signal with controls": "1/9"}

Empty control strains, which show no peptide, gave a signal in 21% of pairings with library AAYL51; the median was 34 µM and 95% of these signals were weaker than 1.8 µM. No background was subtracted. The control count says in how many pairings with the empty strains this scFv gave a signal.
For reference, the parent read 72 nM as the reference entry and 7.5 nM as a member of this library.

Data: MIT Lincoln Laboratory AlphaSeq set, Engelhart et al. 2022, doi:10.1038/s41597-022-01779-4, as distributed in FLAb.